Measured values: patent US9376424B2, “Methods for treating post traumatic stress disorder” (AZEVAN PHARMACEUTICALS, INC., priority 2010, dated 2016)

The chains behind the UniProt entries cited, without tags or fusion partners.
UniProt P37288, whole entry: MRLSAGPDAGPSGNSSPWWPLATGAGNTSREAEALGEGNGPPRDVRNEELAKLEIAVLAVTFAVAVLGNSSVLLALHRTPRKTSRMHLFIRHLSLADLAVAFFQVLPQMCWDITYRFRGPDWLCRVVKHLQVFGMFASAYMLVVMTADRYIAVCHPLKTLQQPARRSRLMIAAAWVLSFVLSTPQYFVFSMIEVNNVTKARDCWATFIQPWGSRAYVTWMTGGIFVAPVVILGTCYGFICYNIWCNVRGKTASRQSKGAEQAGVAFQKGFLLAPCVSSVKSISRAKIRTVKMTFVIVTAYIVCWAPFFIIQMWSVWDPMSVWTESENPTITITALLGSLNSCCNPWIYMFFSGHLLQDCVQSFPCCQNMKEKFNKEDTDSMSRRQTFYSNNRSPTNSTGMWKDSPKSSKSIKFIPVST

Legend:
human V1a receptor = human V1a receptor (Homo sapiens, UniProt P37288); experiment: Human vasopressin V1a receptor binding assay (3H-AVP competition, hV1a cell line); settings: CHO cells expressing human V1a, 1 nM 3H-AVP; for IC50: read-out: V1a Binding Affinity IC50; for Ki: read-out: V1a Ki
resident male rats = experiment: Resident-Intruder Model of Stress and Aggression in Rats (neuroimaging); settings: male residents; tested form: HCl

SMILES | IC50 (human V1a receptor) [nM] | Ki (human V1a receptor) [nM] | sexual behavior toward receptive females in home cage (resident male rats)
O=C(NCc1cccc(C(F)(F)F)c1)[C@H](CCC(=O)N1CCN(N2CCCC2)CC1)N1C(=O)[C@@H](N2C(=O)OC[C@@H]2c2ccccc2)[C@H]1/C(Cl)=C/c1ccccc1 | 11 | 6.71 | 
O=C(N[C@@H]1CCCc2ccccc21)[C@H](CCC(=O)N1CCN(C2CCCCC2)CC1)N1C(=O)[C@@H](N2C(=O)OC[C@@H]2c2ccccc2)[C@H]1CCc1ccccc1 | 9 | 5.5 | 
CN(Cc1cccc(C(F)(F)F)c1)C(=O)[C@@H](CC(=O)N1CCC(N2CCCCC2)CC1)N1C(=O)[C@@H](N2C(=O)OC[C@@H]2c2ccccc2)[C@H]1/C=C/c1ccccc1 |  |  | normal sexual behavior
